Among the data in patent US6080739A (priority 1996, dated 2000) are MCF7-ADR/MCF7 and IC50 values, retold here.

This test relates to MCF7-ADR. Nature of the test: antimitotic activity on cultured breast tumour explants, resistant to adriamycin and vinblastin (MCF7-ADR). Particulars: for MCF7-ADR/MCF7: ratio of IC50 resistant to normal cells; for IC50: read-out: IC50 MCF7-ADR, MCF7-ADR, resistant to both adriamycin and vinblastin.

Regarding `COc1cc2c(c(OC)c1OC)-c1ccc(SC)c(=O)cc1C1=Nc3cc(C(C)(C)C)cc(C(C)(C)C)c3OC1C2` (stereo not drawn) [Compound IIa], the MCF7-ADR/MCF7 came to 3 and the IC50 is 52 nM.

Turning to `COc1cc2c(c(OC)c1OC)-c1ccc(SC)c(=O)cc1C(=O)CC2` [Compound Ia, Thiocolchicone], the MCF7-ADR/MCF7 came to 2.4 and the IC50 is 15 nM.

`COc1cc2c(c(OC)c1OC)-c1ccc(OC)c(=O)cc1C(=O)CC2` [Compound Ib, Colchicone]: the MCF7-ADR/MCF7 amounted to 1.7 and the 50% inhibitory concentration (IC50) was found to be 40 nM.
